Molecular target: Acetylcholinesterase (Electrophorus electricus, UniProt O42275)
Test: Mixed type inhibition of Electric eel AChE assessed as inhibition constant using acetylthiocholine as substrate after 7 min by Ellman's method

Sequences of proteins named here, by UniProt entry; tags and fusion partners are left off. Residues count along the entry.
UniProt O42275, 24-633 limits assumed: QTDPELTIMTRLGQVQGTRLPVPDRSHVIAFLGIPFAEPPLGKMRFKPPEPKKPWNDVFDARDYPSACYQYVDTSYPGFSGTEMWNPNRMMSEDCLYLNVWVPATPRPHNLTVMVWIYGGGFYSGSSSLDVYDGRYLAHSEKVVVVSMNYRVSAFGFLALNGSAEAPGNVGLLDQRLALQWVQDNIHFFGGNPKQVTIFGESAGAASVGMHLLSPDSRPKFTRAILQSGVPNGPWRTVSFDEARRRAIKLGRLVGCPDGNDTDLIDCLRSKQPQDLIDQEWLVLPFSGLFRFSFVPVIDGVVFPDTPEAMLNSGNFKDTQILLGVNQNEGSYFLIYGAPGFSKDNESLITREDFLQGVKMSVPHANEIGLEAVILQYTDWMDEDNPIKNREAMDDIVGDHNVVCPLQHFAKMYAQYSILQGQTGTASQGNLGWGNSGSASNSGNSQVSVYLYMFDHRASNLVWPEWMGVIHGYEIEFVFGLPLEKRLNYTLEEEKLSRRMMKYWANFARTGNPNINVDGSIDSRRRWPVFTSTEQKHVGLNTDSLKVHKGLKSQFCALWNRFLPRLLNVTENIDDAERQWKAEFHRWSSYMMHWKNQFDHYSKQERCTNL

For `COc1cc(CN(C)C)ccc1O`, the Ki was 80 µM.
`COc1cc(CN2CCCC2)ccc1O` showed a Ki of 95 µM.
